{
  "sequences": {"note": "The chains behind the UniProt entries cited, without tags or fusion partners.", "UniProt Q86WV6, whole entry": "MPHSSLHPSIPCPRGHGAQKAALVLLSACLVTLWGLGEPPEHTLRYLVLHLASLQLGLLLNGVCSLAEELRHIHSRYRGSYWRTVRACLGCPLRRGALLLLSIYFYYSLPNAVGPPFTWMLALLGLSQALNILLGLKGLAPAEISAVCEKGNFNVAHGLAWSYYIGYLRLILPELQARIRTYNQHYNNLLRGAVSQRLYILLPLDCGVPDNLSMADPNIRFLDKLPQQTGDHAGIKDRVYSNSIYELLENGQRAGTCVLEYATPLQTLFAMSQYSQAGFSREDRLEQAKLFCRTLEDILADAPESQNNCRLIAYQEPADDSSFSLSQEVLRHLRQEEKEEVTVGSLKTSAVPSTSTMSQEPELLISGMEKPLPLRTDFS"},
  "source": "paper PMC10940318",
  "about": "“Targeted intracellular delivery of dimeric STINGa by two pHLIP peptides for treatment of solid tumors” (Frontiers in Pharmacology, 2024)",
  "key": {"human STING WT protein": {"biological_target": "human STING WT protein (Homo sapiens, UniProt Q86WV6)", "assay": "HTRF competitive binding to STING protein (human STING WT binding kit)", "details": "read-out: binding affinity to STING protein; HTRF competitive assay, 6His-tagged human STING WT, d2-labelled ligand, 3 h RT; EC50 in method, IC50 in Fig. S1"}, "[1]": {"tested_on": "CT26 murine colorectal cancer tumors", "assay": "Treatment of CT26 tumors in mice", "format": "in vivo, Balb/c mice", "details": "two IP injections of 300 µM 500 µL on days 1 and 3"}},
  "data": [
    {"smiles": "COc1cc2sc(C(=O)CCC(=O)O)cc2cc1OCCCOc1cc2sc(C(=O)CCC(=O)O)cc2cc1OC", "values": [
      {"measurement": "IC50", "setting": "human STING WT protein", "result": 24, "unit": "nM"},
      {"measurement": "therapeutic activity on animals (in words)", "setting": "[1]; CT26 tumors", "result": "does not exhibit any therapeutic activity"},
      {"measurement": "mice with tumor eradicated / survived out of treated", "setting": "[1]; CT26 tumors 100-150 mm3, female Balb/c, followed 65 days", "result": "0/5"},
      {"measurement": "time in which all animals developed endpoint size tumors (2,000 mm3)", "setting": "[1]; same range stated for vehicle", "result": "14–20 days p.i."}
    ]}
  ]
}
